1 molecule from patent US20050276794A1, “Composition and method for improving pancreatic islet cell survival” (priority 2004, published 2005) can be followed below.

This data set relates to isolated islet cells. To be noted: at much higher concentrations than about 1 to about 5 μM. The protocol:
Single islets were hand-picked from a Petri dish under microscopy and transferred to wells in a 96-well microculture plate. Micronutrients comprising alpha-tocopherol (50 μM), gamma-tocopherol (50 μM), and succinate (5 μM) were added to wells in various combinations, with regular media (no added micronutrients) used as control. Islet cell survival was indicated by maintenance of a more compact cell mass, with disruption of the cell mass indicating islet cell death detected by microscopic means. […] Samples are shown in duplicate (a—middle panel, and b—bottom panel), with the corresponding control in the top panel.

Consider `Cc1c(C)c2c(c(C)c1OC(=O)CCC(=O)O)CC[C@@](C)(CCC[C@H](C)CCC[C@H](C)CCCC(C)C)O2` [alpha-tocopheryl succinate], for which the toxicity to cells result was “may be toxic to cells”.
